Results as given in patent US20240294626A1 (Novartis, published 2024).

How the values were obtained:
Experiment in all cases: cell-based or functional assay
Recombinant human IL-1β [1] = target: T1, Recombinant human IL-1β (human, UniProt P01584 117-269)
Recombinant human IL-18 [2] = target: T2, Recombinant human IL-18 (human, UniProt Q14116 37-193)
Recombinant human IL-18 [3] = target: T2, Recombinant human IL-18; remark: listed apart in the source
Recombinant human IL-1β [4] = target: T1, Recombinant human IL-1β; remark: listed apart in the source
[5] = target: Recombinant marmoset IL-1β (marmoset, UniProt U3E018 117-268)
[6] = target: T3, Recombinant marmoset IL-18 (marmoset, UniProt U3CWC9 37-190)
T3 sequence: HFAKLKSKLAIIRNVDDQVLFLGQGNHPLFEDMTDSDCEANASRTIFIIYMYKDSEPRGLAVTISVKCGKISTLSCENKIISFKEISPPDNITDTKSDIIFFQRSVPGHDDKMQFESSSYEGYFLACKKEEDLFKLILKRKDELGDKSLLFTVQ

B1: bbmAb1 (bispecific antibody, human IgG1, kappa, lambda, L234A L235A)
heavy 1: not shown
light 1: not shown
heavy 2: not shown
light 2: EIVLTQSPDFQSVTPKEKVTITCRASQSIGSSLHWYQQKPDQSPKLLIKYASQSFSGVPSRFSGSGSGTDFTLTINSLEAEDAAAYYCHQSSSLPFTFGPGTKVDIKRTVAAPSVFIFPPSDEQLKSGTASVVCLLNNFYPREAKVQWKVDNALQSGNSQESVTEQDSKDSTYSLSSTLTLSKADYEKHKVYACEVTHQGLSSPVTKSFNRGEC
In the case of B1, the “IC50, inhibition of IL-6 production in human PBMC stimulated with recombinant human IL-1β (60 pM)” value (Recombinant human IL-1β [1]) is reported as 1.35 nM, the “IC50, inhibition of IL-6 production in human dermal fibroblasts stimulated with recombinant human IL-1β (6 pM)” value (Recombinant human IL-1β [1]) is reported as 0.136 nM and the “IC50, inhibition of IFNγ production in KG-1 cells stimulated with recombinant human IL-18 (3 nM) and human IL-12 (1 ng/ml)” value (Recombinant human IL-18 [2]) is reported as 0.071 nM. The “IC50, inhibition of IFNγ production in human PBMC stimulated with recombinant human IL-18 (3 nM) and human IL-12 (1 ng/ml)” value (Recombinant human IL-18 [2]) was 0.87 nM, the “IC50, inhibition of SEAP in HEK Blue reporter cells stimulated simultaneously with IL-1β and IL-18 (one value for both cytokines)” value (Recombinant human IL-18 [3]) was 0.71 nM and the “IC50, inhibition of SEAP in HEK Blue reporter cells stimulated simultaneously with IL-1β and IL-18 (one value for both cytokines)” value (Recombinant human IL-1β [4]) was 0.71 nM. For the same binder, the “IC50, inhibition of IL-6 production in human dermal fibroblasts stimulated with recombinant marmoset IL-1β (18 pM), Exp. C” value [5] was 0.22 nM, the “IC50, inhibition of IL-6 production in marmoset dermal fibroblasts stimulated with recombinant marmoset IL-1β (18 pM), Exp. A” value [5] was 0.174 nM and the “IC50, inhibition of IL-6 production in marmoset dermal fibroblasts stimulated with recombinant marmoset IL-1β (18 pM), Exp. B” value [5] was 0.364 nM. The “IC50, inhibition of IFNγ production in marmoset whole blood stimulated with recombinant marmoset IL-18 (1 nM) and human IL-12 (10 ng/ml)” value [6] was 10 nM.
